Molecular target: MIF (Homo sapiens (Human), UniProt P14174)
Experiment: MIF dopachrome tautomerase assay
Type: biochemical
Conditions: potency relative to ISO-1

Protein sequences, listed by entry. Tags and fused reporters are not part of them. Residues count along the entry.
UniProt P14174, 2-115 limits assumed: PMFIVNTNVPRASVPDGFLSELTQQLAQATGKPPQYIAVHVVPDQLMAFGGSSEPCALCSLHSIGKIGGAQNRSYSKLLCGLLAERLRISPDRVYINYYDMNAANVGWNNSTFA

## CC(C)(C)COC(=O)CC1CC(c2ccc(O)cc2)=NO1 (stereo not shown)
  fold more potent than ISO-1: about ten

Reference: patent publication US8618147B2, “Modified macrophage migration inhibitory factor inhibitors” (The Feinstein Institute for Medical Research, priority 2006, dated 2013)
